Measured values reported in PMC2737085.

Target: RPA heterotrimer with ΔN-RPA1 (RPA1 lacking amino acids 1-168) (UniProt P27694)
Assay: co-IP

MRE11/RAD50/NBS1 (MRN) complex, P49959 1-708; Q92878 1-1312; O60934 1-754
percent decrease in binding against RPA: 97%
